System: CD8^+T cells from OT-I TCR transgenic mice
Conditions: OVAp, spleen dendritic cells, TGF-β1
Protocol: The culture medium used for dendritic cell-T cell cultures was Iscove's modified Dulbecco medium (IMDM) (Gibco, USA) supplemented with 10% heat-inactivated FCS, 2 mM L-glutamine, 100 U/ml penicillin, 100 μg/ml streptomycin, and 5 mM β-mercaptoethanol (all Sigma, USA). […] For dendritic cell-T cell cultures, 2×10^4 dendritic cells and 1×10^5 T cells were cultured in a volume of 200 μl (96-well plates). For irradiated APC-T cell cultures, 5×10^5 APCs and 1×10^5 T cells were cultured in a volume of 200 μl in 96-well plates (2×10^6 APCs and 0.5×10^6 T cells per well in 48-well plates). […] For the study shown in FIG. 4A, after sorting of naive CD4^+ cells (CD25^−CD44^lowCD62L^+), cells were washed twice in PBS+0.1% BSA, counted and labeled with 2 μM of CFSE (Carboxyfluorescein diacetate, succinimidyl ester) (Molecular Probes, USA) at a concentration of 5−10×10^6 cells per ml in PBS-0.1% BSA.

CC1=C(/C=C/C(C)=C/C=C/C(C)=C/C(=O)O)C(C)(C)CCC1 [RA, All-trans retinoic acid]
synergistic effect on TGF-b-dependent Foxp3^+ T cell differentiation in CD8^+T cells: also apparent with CD8^+T cells
